Measured values reported in patent US12528818B2, “Compositions and methods for inhibition of RAS” (Leidos Biomedical Research, Inc., priority 2021, dated 2026).

Assays:
[1] = molecular target: Avi-KRAS G12C (1-169) GppNHp/RAF1 RBD-3xFLAG (52-151) (Homo sapiens, UniProt P01116, G12C); test: biochemical; conditions: Raf1-GppNHp-KRAS G12C disruption, Raf1 RBD-KRAS G12C-GppNHp disruption assay IC50
[2] = molecular target: T1, GTP-loaded KRAS4b (amino acids 1-169) G12C/C118S protein (Homo sapiens, UniProt P01116, C118S/G12C); test: Covalent cysteine 12 modification by MALDI-TOF MS, GTP-loaded KRAS G12C; assay type: biochemical; conditions: 15 minutes reaction time, compound 95 or later using 1 μM proteins
T1 construct: KRAS4b (amino acids 1-169) G12C/C118S protein; made in house

[3] = molecular target: GDP-loaded KRAS4b (amino acids 1-169) G12C/C118S protein (Homo sapiens, UniProt P01116, C118S/G12C); test: Covalent cysteine 12 modification by MALDI-TOF MS, GDP-loaded KRAS G12C; assay type: biochemical; conditions: 15 minutes reaction time, compound 95 or later using 1 μM proteins
[4] = molecular target: GppNHp-loaded KRAS4b (amino acids 1-169) G12C/C118S protein (Homo sapiens, UniProt P01116, C118S/G12C); test: Covalent cysteine 12 modification by MALDI-TOF MS, GppNHp-loaded KRAS G12C; assay type: biochemical; conditions: 15 minutes reaction time, compound 95 or later using 1 μM proteins

Compound	IC50 [1] [nM]	GTP-KRAS G12C percent of modification [2]	GDP-KRAS G12C percent of modification [3]	GppNHp-KRAS G12C percent of modification [4]
C=CC(=O)N1[C@@H](C)CN(c2nc(OC[C@@]34CCCN3C[C@H](OC)C4)nc3c(F)c(-c4ccc(F)c5sc(N)c(C#N)c45)c(C(F)(F)F)cc23)C[C@@H]1C (atropisomer, axis not shown) [Compound 364]	< 500	C (10%≤percent of modification <50%)	A (percent of modification ≥70%)	A (percent of modification ≥70%)
C=CC(=O)N1CC[C@H](N(C)c2nc(OC[C@@]34CCCN3C[C@H](F)C4)nc3c(F)c(-c4ccc(F)c5sc(N)c(C#N)c45)c(Cl)cc23)[C@@H]1C (atropisomer, axis not shown) [Compound 467]	< 500	C (10%≤percent of modification <50%)	A (percent of modification ≥70%)	B (50≤percent of modification <70%)
C=CC(=O)N1CC[C@@H](N(C)c2nc(OC[C@@]34CCCN3C[C@H](F)C4)nc3c(F)c(-c4ccc(F)c5sc(N)nc45)c(C(F)(F)F)cc23)C1 (single isomer, unassigned) [Compound 239]	< 500	A (percent of modification ≥70%)	A (percent of modification ≥70%)	A (percent of modification ≥70%)
C=CC(=O)N1CC[C@@H](N(C)c2nc(OC[C@@]34CCCN3C[C@H](F)C4)nc3c(Cl)c(-c4ccc(F)c5sc(N)nc45)c(C(F)(F)F)cc23)C1 (single isomer, unassigned) [Compound 302]	< 500	A (percent of modification ≥70%)	A (percent of modification ≥70%)	A (percent of modification ≥70%)
C=CC(=O)N1CC[C@@H](N(C)c2nc(OC[C@@]34CCCN3C[C@H](F)C4)nc3c(Cl)c(-c4ccc(F)c5sc(N)nc45)c(C(F)(F)F)cc23)C1 (single isomer, unassigned) [Compound 303]	5000 to 20000	D (percent of modification <10%)	D (percent of modification <10%)	D (percent of modification <10%)
C=CC(=O)N1C[C@H](C)N(c2nc(OC[C@@]34CCCN3C[C@H](F)C4)nc3c(F)c(-c4ccc(F)c5sc(N)c(C#N)c45)c(C(F)(F)F)cc23)C[C@H]1C (single isomer, unassigned) [Compound 313]	< 500	A (percent of modification ≥70%)	A (percent of modification ≥70%)	A (percent of modification ≥70%)
C=CC(=O)N1C[C@H](C)N(c2nc(OC[C@@]34CCCN3C[C@H](F)C4)nc3c(F)c(-c4ccc(F)c5sc(N)c(C#N)c45)c(C(F)(F)F)cc23)C[C@H]1C (single isomer, unassigned) [Compound 314]	5000 to 20000	D (percent of modification <10%)	D (percent of modification <10%)	D (percent of modification <10%)
C=CC(=O)N1CC[C@@H](N(C)c2nc(OC[C@@]34CCCN3C[C@H](F)C4)nc3c(F)c(-c4ccc(F)c5sc(N)c(C#N)c45)c(C(F)(F)F)cc23)[C@H]1C (single isomer, unassigned) [Compound 435]	> 20000	D (percent of modification <10%)	D (percent of modification <10%)	D (percent of modification <10%)
C=CC(=O)N1C[C@H](C)N(c2nc(OC[C@@H]3CCCN3C)nc3c(F)c(-c4ccc(F)c5sc(N)c(C#N)c45)c(C(F)(F)F)cc23)C[C@H]1C (single isomer, unassigned) [Compound 457]	> 20000	D (percent of modification <10%)	D (percent of modification <10%)	D (percent of modification <10%)
C=CC(=O)N1C[C@H](C)N(c2nc(OC[C@@H]3CCCN3C)nc3c(F)c(-c4ccc(F)c5sc(N)c(C#N)c45)c(C(F)(F)F)cc23)C[C@H]1C (single isomer, unassigned) [Compound 458]	< 500	B (50≤percent of modification <70%)	A (percent of modification ≥70%)	A (percent of modification ≥70%)
C=CC(=O)N1CC[C@@H](N(C)c2nc(OC[C@@]34CCCN3C[C@H](F)C4)nc3c(F)c(-c4ccc(F)c5sc(N)nc45)c(C(F)(F)F)cc23)C1 [Compound 198]	< 500	A (percent of modification ≥70%)	A (percent of modification ≥70%)	A (percent of modification ≥70%)
C=CC(=O)N1C[C@H](C)N(c2nc(OC[C@@]34CCCN3C[C@H](F)C4)nc3c(F)c(-c4ccc(F)c5sc(N)nc45)c(C(F)(F)F)cc23)C[C@H]1C [Compound 202, 1-((2R,5S)-4-(7-(2-amino-7-fluorobenzo[d]thiazol-4-yl)-8-fluoro-2-(((2R,7aS)-2-fluorotetrahydro-1H-pyrrolizin-7a(5H)-yl)methoxy)-6-(trifluoromethyl)quinazolin-4-yl)-2,5-dimethylpiperazin-1-yl)prop-2-en-1-one]	< 500	C (10%≤percent of modification <50%)	A (percent of modification ≥70%)	A (percent of modification ≥70%)
C=CC(=O)N1C[C@H](C)N(c2nc(OC[C@@]34CCCN3C[C@H](F)C4)nc3c(F)c(-c4ccc(F)c5sc(N)c(C#N)c45)c(C(F)(F)F)cc23)C[C@H]1C [Compound 252, 4-(4-((2S,5R)-4-acryloyl-2,5-dimethylpiperazin-1-yl)-8-fluoro-2-(((2R,7aS)-2-fluorotetrahydro-1H-pyrrolizin-7a(5H)-yl)methoxy)-6-(trifluoromethyl)quinazolin-7-yl)-2-amino-7-fluorobenzo[b]thiophene-3-carbonitrile]	< 500	B (50≤percent of modification <70%)	A (percent of modification ≥70%)	A (percent of modification ≥70%)
C=CC(=O)N1CC[C@@H](N(C)c2nc(OC[C@@]34CCCN3C[C@H](F)C4)nc3c(F)c(-c4ccc(F)c5sc(N)c(C#N)c45)c(C(F)(F)F)cc23)C1 [Compound 253]	< 500	A (percent of modification ≥70%)	A (percent of modification ≥70%)	A (percent of modification ≥70%)
C=CC(=O)N1C[C@H](N(C)c2nc(OC[C@@]34CCCN3C[C@H](F)C4)nc3c(F)c(-c4ccc(F)c5sc(N)nc45)c(C(F)(F)F)cc23)C[C@H]1C [Compound 274]	< 500	A (percent of modification ≥70%)	A (percent of modification ≥70%)	A (percent of modification ≥70%)
C=CC(=O)N1CC[C@@H](N(C)c2nc(OC[C@@]34CCCN3C[C@H](F)C4)nc3c(F)c(-c4ccc(F)c5oc(N)nc45)c(C(F)(F)F)cc23)C1 [Compound 275]	< 500	A (percent of modification ≥70%)	A (percent of modification ≥70%)	A (percent of modification ≥70%)
C=CC(=O)N1C[C@@H](F)[C@@H](N(C)c2nc(OC[C@@]34CCCN3C[C@H](F)C4)nc3c(F)c(-c4ccc(F)c5sc(N)nc45)c(C(F)(F)F)cc23)C1 [Compound 279]	< 500	A (percent of modification ≥70%)	A (percent of modification ≥70%)	A (percent of modification ≥70%)
C=CC(=O)N1CC[C@@H](N(C)c2nc(OCC3(CN4CCOCC4)CC3)nc3c(F)c(-c4ccc(F)c5sc(N)nc45)c(C(F)(F)F)cc23)C1 [Compound 287]	< 500	B (50≤percent of modification <70%)	B (50≤percent of modification <70%)	A (percent of modification ≥70%)
C=CC(=O)N1CC[C@@H](N(C)c2nc(OCC3(CN4CC[C@@H](F)C4)CC3)nc3c(F)c(-c4ccc(F)c5sc(N)nc45)c(C(F)(F)F)cc23)C1 [Compound 288]	< 500	B (50≤percent of modification <70%)	A (percent of modification ≥70%)	B (50≤percent of modification <70%)
C=CC(=O)N1CC[C@@H](N(C)c2nc(OC[C@@]34CCCN3C[C@H](OC)C4)nc3c(F)c(-c4ccc(F)c5sc(N)nc45)c(C(F)(F)F)cc23)C1 [Compound 290]	< 500	A (percent of modification ≥70%)	A (percent of modification ≥70%)	A (percent of modification ≥70%)
C=CC(=O)N1C[C@@H](C)[C@@H](N(C)c2nc(OC[C@@]34CCCN3C[C@H](F)C4)nc3c(F)c(-c4ccc(F)c5sc(N)nc45)c(C(F)(F)F)cc23)C1 [Compound 292]	< 500	C (10%≤percent of modification <50%)	B (50≤percent of modification <70%)	C (10%≤percent of modification <50%)
